Experimental findings from publication PMC3100226 (Journal of Pain Research, 2011) are described below.

Sequences of proteins named here, by UniProt entry; tags and fusion partners are left off. Residues count along the entry.
UniProt P07727, 29-457: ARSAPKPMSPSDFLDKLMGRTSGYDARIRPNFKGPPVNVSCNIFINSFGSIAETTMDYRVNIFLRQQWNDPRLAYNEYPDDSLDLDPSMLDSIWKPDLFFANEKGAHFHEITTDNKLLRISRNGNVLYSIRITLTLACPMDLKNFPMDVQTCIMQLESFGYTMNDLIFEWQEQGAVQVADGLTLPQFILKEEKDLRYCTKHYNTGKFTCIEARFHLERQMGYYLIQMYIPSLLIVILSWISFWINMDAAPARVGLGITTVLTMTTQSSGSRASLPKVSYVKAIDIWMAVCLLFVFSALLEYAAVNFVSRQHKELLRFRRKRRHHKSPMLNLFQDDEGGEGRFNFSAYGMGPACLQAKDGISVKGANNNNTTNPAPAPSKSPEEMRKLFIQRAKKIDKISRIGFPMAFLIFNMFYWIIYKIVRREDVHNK

The target of the test is Glycine (strychnine-sensitive) (Rattus norvegicus, UniProt P07727). Nature of the test: Receptor characterization panel: glycine receptor binding. The note with it: read-out: Reference agents (IC50); [3H]Strychnine; spinal cord/rat.

Structures are written as SMILES.

The IC50 is the concentration at which inhibition is half-maximal. As to `NCC(=O)O` [Glycine, reference compound], the IC50 was 13 µM.
